The results in this text go back to publication PMC4559800.

The assay addresses rat monocarboxylate transporter MCT1 (rat) (UniProt P53987).

Consider “human carbonic anhydrase IX, wild type (from UniProt Q16790 38-459) (enzyme)”, for which the rate of lactate-induced rise in intracellular H+ (Δ[H+]i/Δt; MCT1 transport activity) in Xenopus oocytes coexpressing MCT1 and CAIX-WT, against MCT1 alone came to 180%.
